How the values were obtained:
Bcl-2 [1] = biological target: T1, Bcl-2 (Homo sapiens, UniProt P10415); settings: cited from earlier work
T1 construct: purchased R&D Systems, Inc

By UniProt entry, the sequences of proteins in these tests, tags left out.
UniProt P10415, whole entry: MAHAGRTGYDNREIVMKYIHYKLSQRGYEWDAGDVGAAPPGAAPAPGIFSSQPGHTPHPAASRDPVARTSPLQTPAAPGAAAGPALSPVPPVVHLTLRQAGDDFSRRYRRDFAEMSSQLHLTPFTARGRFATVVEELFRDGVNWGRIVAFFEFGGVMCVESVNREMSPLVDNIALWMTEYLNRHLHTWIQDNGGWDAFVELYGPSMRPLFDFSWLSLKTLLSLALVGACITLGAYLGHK

Bcl-2 [2] = biological target: T1, Bcl-2; experiment: Bcl-2 competition binding (fluorescence polarization) assay; settings: 3 hours incubation at room temperature, read-out: BCL2 IC50
Description: Biological Example 1: Bcl-2 Competition Binding (Fluorescence Polarization) Assay
This binding assay was performed in 96-well plate and with each assay contained 15 and 30 nM of labeled peptide and purified Bcl-2 protein (purchased from R&D Systems, Inc). The assay buffer contained 20 mM Hepes (pH 7.0), 50 mM KCl, 5 mM MgCl2, 20 mM Na2MoO4, 0.1 mg/ml Bovine Gamma Globulin and 0.01% NP40. Compounds were diluted in DMSO and added to the final assay with concentration range from 20 μM to 2 nM. The polarization degree (mP) value was determined by BioTek Synergy II with background subtraction after 3 hours of incubation at room temperature. IC50 was calculated using Prism software with sigmoidal dose-response curve fitting. ABT-737 was used as reference compound. Such assays, carried out with a range of doses of test compounds, allowed the determination of an approximate IC50 value.

For `CC1(C)CCC(c2ccc(Cl)cc2)=C(CN2CCN(c3ccc(C(=O)NS(=O)(=O)c4ccc(N[C@H](CCN5CCOCC5)CSc5ccccc5)c(S(=O)(=O)C(F)(F)F)c4)cc3)CC2)C1` [ABT-263], the Ki (Bcl-2 [1]) is given as no more than 1 nM and the IC50 (Bcl-2 [2]) is given as 0.45 nM.

— US12583853B2, “1H-pyrrolo[2,3-b]pyridine derivatives and related compounds as BCL-2 inhibitors for the treatment of neoplastic and autoimmune diseases” (Newave Pharmaceutical Inc., priority 2018, dated 2026)
